The experiment has as its target Bovine cationic trypsin (bovine). Put plainly: equilibrium titration with spectrophotometric assay of residual free trypsin.

Our source for the Kd values is article PMC2615049.

Usually Kd stands for the equilibrium constant for the complex coming apart. In the case of “Wild-type bovine pancreatic trypsin inhibitor (BPTI, aprotinin) (from UniProt P00974 36-93) (natural protein)”, the Kd was below 0.01 nM.
